Measured values as given in IntAct's records for PubMed 35512704.

B1: RAC-alpha serine/threonine-protein kinase (Homo sapiens), P31749 (parent)
chain: MSDVAIVKEGWLHKRGEYIKTWRPRYFLLKNDGTFIGYKERPQDVDQREAPLNNFSVAQCQLMKTERPRPNTFIIRCLQWTTVIERTFHVETPEEREEWTTAIQTVADGLKKQEEEEMDFRSGSPSDNSGAEEMEVSLAKPKHRVTMNEFEYLKLLGKGTFGKVILVKEKATGRYYAMKILKKEVIVAKDEVAHTLTENRVLQNSRHPFLTALKYSFQTHDRLCFVMEYANGGELFFHLSRERVFSEDRARFYGAEIVSALDYLHSEKNVVYRDLKLENLMLDKDGHIKITDFGLCKEGIKDGATMKTFCGTPEYLAPEVLEDNDYGRAVDWWGLGVVMYEMMCGRLPFYNQDHEKLFELILMEEIRFPRTLGPEAKSLLSGLLKKDPKQRLGGGSEDAKEIMQHRFFAGIVWQHVYEKKLSPPFKPQVTSETDTRYFDEEFTAQMITITPPDQDDSMECVDSERRPHFPQFSYSASGTA
partner: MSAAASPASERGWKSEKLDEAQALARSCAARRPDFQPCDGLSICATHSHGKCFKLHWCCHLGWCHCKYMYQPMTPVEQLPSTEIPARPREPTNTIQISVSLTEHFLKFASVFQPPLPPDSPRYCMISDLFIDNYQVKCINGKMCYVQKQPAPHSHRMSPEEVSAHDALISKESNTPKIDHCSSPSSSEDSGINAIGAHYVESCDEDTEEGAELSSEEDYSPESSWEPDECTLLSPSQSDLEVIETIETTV
B2: RAC-alpha serine/threonine-protein kinase (Homo sapiens), P31749 (parent)
chain: B1 chain
partner: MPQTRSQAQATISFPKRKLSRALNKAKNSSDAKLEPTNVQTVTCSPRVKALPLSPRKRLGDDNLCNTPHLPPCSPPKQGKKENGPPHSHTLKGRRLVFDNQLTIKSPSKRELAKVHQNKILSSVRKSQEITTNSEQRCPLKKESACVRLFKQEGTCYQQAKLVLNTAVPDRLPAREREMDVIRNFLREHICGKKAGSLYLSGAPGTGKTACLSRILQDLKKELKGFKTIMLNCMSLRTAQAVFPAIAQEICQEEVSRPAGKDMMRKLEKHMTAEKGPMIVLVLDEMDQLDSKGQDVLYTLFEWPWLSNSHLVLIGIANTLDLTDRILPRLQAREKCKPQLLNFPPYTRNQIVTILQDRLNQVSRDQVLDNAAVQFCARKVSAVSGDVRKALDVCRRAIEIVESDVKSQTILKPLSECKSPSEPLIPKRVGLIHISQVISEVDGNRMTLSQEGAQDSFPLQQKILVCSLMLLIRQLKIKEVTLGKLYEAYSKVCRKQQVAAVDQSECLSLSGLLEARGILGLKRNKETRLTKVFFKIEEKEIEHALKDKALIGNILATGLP
B3: RAC-alpha serine/threonine-protein kinase (Homo sapiens), P31749 (parent)
chain: B1 chain
partner: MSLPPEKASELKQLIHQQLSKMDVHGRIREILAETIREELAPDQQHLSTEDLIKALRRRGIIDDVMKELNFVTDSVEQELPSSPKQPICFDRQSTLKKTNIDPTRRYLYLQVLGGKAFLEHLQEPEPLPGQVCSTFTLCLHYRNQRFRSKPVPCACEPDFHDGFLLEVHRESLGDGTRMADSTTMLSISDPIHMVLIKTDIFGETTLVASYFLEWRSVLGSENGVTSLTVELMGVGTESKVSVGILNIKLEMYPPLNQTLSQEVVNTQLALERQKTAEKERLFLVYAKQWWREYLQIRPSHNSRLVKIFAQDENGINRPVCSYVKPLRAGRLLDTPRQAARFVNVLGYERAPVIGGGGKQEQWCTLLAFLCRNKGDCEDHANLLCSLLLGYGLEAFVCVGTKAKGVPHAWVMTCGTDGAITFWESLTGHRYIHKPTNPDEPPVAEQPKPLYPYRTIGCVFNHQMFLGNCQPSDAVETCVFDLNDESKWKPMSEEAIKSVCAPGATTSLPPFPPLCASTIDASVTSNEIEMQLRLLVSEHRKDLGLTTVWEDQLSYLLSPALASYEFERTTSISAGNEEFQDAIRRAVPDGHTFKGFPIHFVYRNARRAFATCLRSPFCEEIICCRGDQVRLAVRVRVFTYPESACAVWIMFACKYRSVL
B4: RAC-alpha serine/threonine-protein kinase (Homo sapiens), P31749 (parent)
chain: B1 chain
partner: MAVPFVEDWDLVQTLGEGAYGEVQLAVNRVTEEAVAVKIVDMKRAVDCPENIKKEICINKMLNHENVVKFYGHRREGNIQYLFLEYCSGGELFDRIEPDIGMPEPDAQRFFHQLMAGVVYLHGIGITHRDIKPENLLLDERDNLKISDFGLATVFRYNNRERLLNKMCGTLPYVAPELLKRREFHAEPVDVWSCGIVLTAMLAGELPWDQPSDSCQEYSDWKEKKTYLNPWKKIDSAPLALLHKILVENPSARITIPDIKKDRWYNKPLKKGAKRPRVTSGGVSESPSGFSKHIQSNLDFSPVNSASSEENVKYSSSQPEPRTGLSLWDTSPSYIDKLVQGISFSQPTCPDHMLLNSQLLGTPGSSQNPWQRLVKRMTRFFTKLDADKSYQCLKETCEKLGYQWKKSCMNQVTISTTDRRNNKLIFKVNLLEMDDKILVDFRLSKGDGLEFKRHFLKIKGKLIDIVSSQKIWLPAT
B5: RAC-alpha serine/threonine-protein kinase (Homo sapiens), P31749 (parent)
chain: B1 chain
partner: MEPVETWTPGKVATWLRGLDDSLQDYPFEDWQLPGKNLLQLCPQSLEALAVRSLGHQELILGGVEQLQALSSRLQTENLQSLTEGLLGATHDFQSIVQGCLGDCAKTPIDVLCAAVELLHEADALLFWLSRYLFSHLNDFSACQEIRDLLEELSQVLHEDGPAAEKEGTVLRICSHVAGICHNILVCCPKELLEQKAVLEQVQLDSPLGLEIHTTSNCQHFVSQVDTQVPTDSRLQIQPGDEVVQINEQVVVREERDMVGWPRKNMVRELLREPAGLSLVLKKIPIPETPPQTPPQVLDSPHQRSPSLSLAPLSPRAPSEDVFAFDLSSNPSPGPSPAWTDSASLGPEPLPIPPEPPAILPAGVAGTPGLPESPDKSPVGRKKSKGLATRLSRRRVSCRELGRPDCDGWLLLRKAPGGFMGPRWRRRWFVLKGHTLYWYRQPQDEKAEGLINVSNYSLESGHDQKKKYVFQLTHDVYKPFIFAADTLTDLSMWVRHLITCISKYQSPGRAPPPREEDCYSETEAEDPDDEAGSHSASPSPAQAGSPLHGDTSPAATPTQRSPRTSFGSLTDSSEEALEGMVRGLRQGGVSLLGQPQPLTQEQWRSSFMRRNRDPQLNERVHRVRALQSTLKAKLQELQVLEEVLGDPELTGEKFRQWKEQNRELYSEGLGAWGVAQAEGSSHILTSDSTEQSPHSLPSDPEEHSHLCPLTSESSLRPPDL
B6: RAC-alpha serine/threonine-protein kinase (Homo sapiens), P31749 (parent)
chain: B1 chain
partner: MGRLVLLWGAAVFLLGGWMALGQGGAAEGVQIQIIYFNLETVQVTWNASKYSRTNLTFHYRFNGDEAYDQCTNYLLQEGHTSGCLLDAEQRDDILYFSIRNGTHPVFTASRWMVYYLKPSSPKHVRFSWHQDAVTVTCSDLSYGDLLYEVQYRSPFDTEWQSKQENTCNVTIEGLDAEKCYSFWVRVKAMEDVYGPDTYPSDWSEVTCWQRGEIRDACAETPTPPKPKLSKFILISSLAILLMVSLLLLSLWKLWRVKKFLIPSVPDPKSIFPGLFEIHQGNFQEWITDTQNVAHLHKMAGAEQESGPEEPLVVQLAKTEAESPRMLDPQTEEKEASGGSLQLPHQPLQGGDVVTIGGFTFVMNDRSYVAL
B7: RAC-alpha serine/threonine-protein kinase (Homo sapiens), P31749 (parent)
chain: B1 chain
partner: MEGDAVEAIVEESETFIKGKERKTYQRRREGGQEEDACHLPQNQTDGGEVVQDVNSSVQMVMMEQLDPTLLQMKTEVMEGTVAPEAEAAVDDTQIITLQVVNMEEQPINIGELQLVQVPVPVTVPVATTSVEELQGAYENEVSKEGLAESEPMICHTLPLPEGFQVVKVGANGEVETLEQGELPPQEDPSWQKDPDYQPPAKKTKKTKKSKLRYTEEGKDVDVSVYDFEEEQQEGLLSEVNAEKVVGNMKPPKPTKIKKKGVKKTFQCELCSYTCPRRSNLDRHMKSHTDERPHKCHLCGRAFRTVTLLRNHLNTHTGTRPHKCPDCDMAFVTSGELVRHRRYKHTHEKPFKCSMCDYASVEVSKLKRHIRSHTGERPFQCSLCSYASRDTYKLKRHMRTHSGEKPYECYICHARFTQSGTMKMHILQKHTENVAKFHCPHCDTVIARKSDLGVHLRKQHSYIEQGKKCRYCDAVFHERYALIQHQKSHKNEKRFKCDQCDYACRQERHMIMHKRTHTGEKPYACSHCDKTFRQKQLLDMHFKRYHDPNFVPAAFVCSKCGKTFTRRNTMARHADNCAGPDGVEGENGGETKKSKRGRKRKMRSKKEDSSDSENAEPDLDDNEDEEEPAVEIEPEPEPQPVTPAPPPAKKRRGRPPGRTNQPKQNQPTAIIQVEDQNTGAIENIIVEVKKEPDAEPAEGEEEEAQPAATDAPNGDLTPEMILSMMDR
B8: RAC-alpha serine/threonine-protein kinase (Homo sapiens), P31749 (parent)
chain: B1 chain
partner: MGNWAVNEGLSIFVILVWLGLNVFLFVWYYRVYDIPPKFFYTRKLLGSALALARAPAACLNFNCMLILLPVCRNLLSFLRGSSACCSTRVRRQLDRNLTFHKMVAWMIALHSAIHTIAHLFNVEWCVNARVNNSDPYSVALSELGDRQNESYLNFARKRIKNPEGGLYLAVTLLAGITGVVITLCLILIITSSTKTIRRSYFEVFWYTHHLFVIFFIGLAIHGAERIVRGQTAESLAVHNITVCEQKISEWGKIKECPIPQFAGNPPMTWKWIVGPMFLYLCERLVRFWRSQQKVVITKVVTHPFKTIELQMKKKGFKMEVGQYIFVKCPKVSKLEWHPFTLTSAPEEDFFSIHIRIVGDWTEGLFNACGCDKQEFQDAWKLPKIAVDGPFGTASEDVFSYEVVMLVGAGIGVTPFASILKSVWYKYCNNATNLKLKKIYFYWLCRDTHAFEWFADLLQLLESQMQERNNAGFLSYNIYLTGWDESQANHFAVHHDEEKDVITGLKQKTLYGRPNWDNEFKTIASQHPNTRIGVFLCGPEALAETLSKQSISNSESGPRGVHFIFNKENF
B9: RAC-alpha serine/threonine-protein kinase (Homo sapiens), P31749 (parent)
chain: B1 chain
partner: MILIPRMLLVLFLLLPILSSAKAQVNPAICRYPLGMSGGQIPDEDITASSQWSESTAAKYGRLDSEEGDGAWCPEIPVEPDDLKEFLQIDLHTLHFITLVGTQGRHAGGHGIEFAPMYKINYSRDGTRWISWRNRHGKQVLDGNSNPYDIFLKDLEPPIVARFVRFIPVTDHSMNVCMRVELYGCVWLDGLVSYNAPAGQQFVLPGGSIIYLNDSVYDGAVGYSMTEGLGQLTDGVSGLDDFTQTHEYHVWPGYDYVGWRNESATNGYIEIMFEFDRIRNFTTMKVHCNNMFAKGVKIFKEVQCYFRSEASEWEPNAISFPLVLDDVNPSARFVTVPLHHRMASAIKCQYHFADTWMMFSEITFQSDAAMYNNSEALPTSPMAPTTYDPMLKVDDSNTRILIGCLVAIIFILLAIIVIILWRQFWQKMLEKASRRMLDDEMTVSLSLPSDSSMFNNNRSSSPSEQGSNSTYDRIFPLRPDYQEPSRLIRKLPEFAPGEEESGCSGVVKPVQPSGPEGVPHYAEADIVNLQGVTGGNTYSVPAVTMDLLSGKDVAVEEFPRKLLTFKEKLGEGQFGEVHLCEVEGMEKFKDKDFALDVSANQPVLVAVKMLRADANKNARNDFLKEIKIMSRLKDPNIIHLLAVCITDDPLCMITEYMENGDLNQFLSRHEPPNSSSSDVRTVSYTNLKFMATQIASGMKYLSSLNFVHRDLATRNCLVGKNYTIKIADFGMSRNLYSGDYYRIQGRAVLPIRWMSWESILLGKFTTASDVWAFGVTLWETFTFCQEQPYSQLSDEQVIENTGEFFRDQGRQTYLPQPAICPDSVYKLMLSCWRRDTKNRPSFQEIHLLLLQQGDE

Variants of: B1
Details: with cc070_human C3orf70, A6NLC5

**Q.** E17K was tested. Which “effect of a mutation on the interaction” value did it give?
**A.** Its value is “with no effect”.

Variants of: B2
Details: with cdc6_human CDC6, Q99741

**Q.** For E17K, which “effect of a mutation on the interaction” value is on record?
**A.** The value was “with no effect”.

Variants of: B3
Details: with cep76_human CEP76, Q8TAP6

**Q.** With E17K as the variant, how does the “effect of a mutation on the interaction” value read?
**A.** Its value is “with no effect”.

Variants of: B4
Details: with chk1_human CHEK1, O14757

**Q.** E17K was tested. Which “effect of a mutation on the interaction” value did it give?
**A.** The value was “with no effect”.

Variants of: B5
Details: with cnkr1_human CNKSR1, Q969H4

**Q.** How did the “effect of a mutation on the interaction” value turn out when E17K was run?
**A.** Its value is “with no effect”.

Variants of: B6
Details: with crlf2_human CRLF2, Q9HC73

**Q.** E17K was tested. Which “effect of a mutation on the interaction” value did it give?
**A.** Its value is “with no effect”.

Variants of: B7
Details: with ctcf_human CTCF

**Q.** How did the “effect of a mutation on the interaction” value turn out when E17K was run?
**A.** Its value is “with no effect”.

Variants of: B8
Details: with cy24b_human CYBB

**Q.** For E17K, which “effect of a mutation on the interaction” value is on record?
**A.** Its value is “with no effect”.

Variants of: B9
Details: with ddr2_human DDR2, Q16832

**Q.** E17K was tested. Which “effect of a mutation on the interaction” value did it give?
**A.** Its value is “with no effect”.
